Target: HLA-E (Homo sapiens, UniProt P13747)
Experiment: HLA-E surface stabilization assay with RMA-S/HLA-E cells
Format: cell-based
Details: RMA-S/HLA-E cells incubated with 30 μM peptide, anti-HLA-E antibody
Description: Assessment of peptide-HLA-E binding via HLA-E surface stabilization assay with RMA-S/HLA-E cells incubated with 30 μM peptide. HLA-E expression is detected with an anti-HLA-E antibody.
To do so, various sequence variants were assessed for their ability to stabilize surface-expressed HLA-E on RMA-S/HLA-E cells, a TAP-deficient mouse tumor cell line engineered to express HLA-E and human β2M (FIG. 3).

Question: RMPPRSVLL was tested. Which “stabilization of HLA-E surface expression (peptide-HLA-E binding)” value did it give?
Answer: Its value is “strong stabilization of HLA-E”.

— patent publication US20260286356A1, “NUCLEIC ACID VACCINE FOR ACTIVATING NKG2C+ NATURAL KILLER CELLS” (priority 2023, published 2026)
